Sfp PPTase inh – blocks B. subtilis Sfp PPTase activity; Q9F4F7; Biochemical Sfp PPTase activity, qHTS; Potency, µM, hits mostly inhibitors; 3.5% of 310,000 active; AID 1490;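 note: the enzyme is Sfp with the accession as filed and its product quenches rhodamine fluorescence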
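After 15 min at room temperature with compound, 15 nM Sfp received 5 uM rhodamine-CoA plus 12.5 uM BHQ-2-ybbR (50 mM Hepes pH 7.6, 10 mM MgCl2). Rate came from the fluorescence difference over 30 min, ex 525/em 598 nm.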
ALDH1A1 inh – blocks purified human ALDH1A1 activity; Potency, µM (doses to about 75.3 µM), usual class: inhibitors; Purified ALDH1A1, NADH fluorescence, propionaldehyde substrate; P00352; 7.3% of 220,000 active; AID 1030; active = well fitted inhibition curve with a large enough effect, not every such curve was filed as active; inconclusive = small, poorly fitted or top-dose-only effect, or another doubt; inactive = no such curve, though single readings can be large or run the other way
LMNA splice mod – changes lamin A minigene splicing in HeLa cells; HeLa LMNA splicing GFP/RFP minigene ratio, 48 h; Potency, µM (highest dose often 46.1 µM), hits mostly inhibitors; 0.01% of 200,000 active; AID 1487; active = well fitted inhibition curve with a large enough effect in the signal ratio, with a control signal flat, not every such curve was filed as active; inconclusive = small, poorly fitted or top-dose-only effect, or effect the other way, or a change in a side signal; the % refers to the signal ratio
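S3 HeLa cells stably expressing lamin A-EGFP splicing minigene plus DsRed2, 600 cells/well, 48 h compound exposure at 37C. Laser-scanning cytometry; analysed as GFP (500-530 nm)/RFP (575-640 nm) total intensity ratio; 0.5% DMSO vehicle.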
G9a block – blocks human histone lysine methyltransferase G9a; Potency, µM (series often up to 102 µM), hits mostly inhibitors; G9a H3K9 monomethylation, AlphaScreen, 2 h; AID 504332; 8.8% of 350,000 active; note: nearly all actives have a fitted effect of over 75% in size
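G9a (20 nM) preincubated 15 min RT with compounds, then 500 nM biotinylated H3K9 peptide and 20 uM SAM added; 2 h RT reaction. Monomethyl-H3K9 product detected by AlphaScreen with anti-H3K9me1 antibody, streptavidin donor and anti-rabbit IgG acceptor beads.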
miR-21 reporter – miR-21 reporter, rising signal. 340,000 tested, under 10 active. Potency, µM (highest dose often 38.3 µM). HeLa miR-21 FLuc reporter, luciferase, 48 h. AID 2288; active = well fitted rising curve with a large enough effect; inconclusive = small, poorly fitted or top-dose-only effect; inactive = no such curve, though single readings can be large or run the other way;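 further: miR-21 action dims this reporter so a rising signal means less miR-21 action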
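HeLa miR-21-FLuc reporter line, endogenous miR-21; 2000 cells/well in DMEM/10% FBS; compound titration up to ~40uM final, 48 h, 37 degree Celsius; luciferase detection reagent, 15 min lysis, CCD luminescence.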
JMJD2E inh – inhibitors of human JMJD2E histone demethylase. JMJD2E catalytic domain, FDH-coupled NADH fluorescence (FDH is formaldehyde dehydrogenase). Potency, µM (highest dose often 57.1 µM), actives largely listed as inhibitors. 1.6% of 230,000 active. AID 2147; active = well fitted inhibition curve with a large enough effect, not every such curve was filed as active; inconclusive = small, poorly fitted or top-dose-only effect, or another doubt; inactive = no such curve, though single readings can be large or run the other way; note: nearly all actives have a fitted effect of over 50% in size
Numbers stand for hits; ! = not active in a repeat; [ ] = dose if it differs, or a comment. Hits are enriched below; roughly 13% of the tested compounds scored in any of these assays. Unless noted, calls come from the whole dose curve; as a rule, active = well fitted curve in the direction sought with a large enough effect; inconclusive = small, poorly fitted or top-dose-only effect, or another doubt; inactive = no such curve, though single readings can be large; an effect the other way counts as inactive or inconclusive.

How did CCCCN(C(=O)c1cc(Cl)nc2ccccc12)c1c(N)n(CCCC)c(=O)[nH]c1=O do in these assays?
G9a block: 56µM

What do the screens show for `CCCCn1c(N)c(N(CCOC)C(=O)c2cc(-c3ccco3)nc3ccccc23)c(=O)[nH]c1=O`?
G9a block: 40µM

Results for CCCCN(C(=O)c1cc(-c2ccc(F)cc2)nc2ccccc12)c1c(N)n(CCCC)c(=O)[nH]c1=O ?
G9a block: inactive

Results for CCCCn1c(N)c(N(CCC(C)C)C(=O)c2cc(-c3ccco3)nc3ccccc23)c(=O)[nH]c1=O ?
Sfp PPTase inh: inconclusive; G9a block: inconclusive; miR-21 reporter: inactive

How did CCCCn1c(N)c(N(CCOC)C(=O)c2cc(-c3ccc(OC)c(OC)c3)nc3ccccc23)c(=O)[nH]c1=O do in these assays?
G9a block: 11µM

How did CCOc1ccccc1NC(=O)CCn1c(-c2ccc(OC)cc2)cc(C(C)=O)c1C do in these assays?
LMNA splice mod: inactive; G9a block: inactive; miR-21 reporter: inactive

How did O=S(=O)(NCCc1nnc2ccc(SCc3cccc(Cl)c3)nn12)c1ccccc1 do in these assays?
G9a block: inactive; miR-21 reporter: inactive

Results for Nc1nc(-c2ccc3c(c2)CCCC3)cs1 ?
Sfp PPTase inh: inactive; ALDH1A1 inh: inconclusive; LMNA splice mod: inactive; G9a block: 18µM; miR-21 reporter: inactive; JMJD2E inh: inactive

How did CC1Cc2cc(-c3csc(N)n3)ccc2O1 (stereo unspecified) do in these assays?
Sfp PPTase inh: inactive; G9a block: inconclusive; miR-21 reporter: inactive

Results for CCOC(=O)c1cccc(NC(=O)CCS(=O)(=O)c2cccs2)c1 ?
Sfp PPTase inh: inactive; ALDH1A1 inh: 20µM; LMNA splice mod: inactive; G9a block: inactive; miR-21 reporter: inactive; JMJD2E inh: inactive

Results for COC(=O)c1ccc(NC(=O)CCS(=O)(=O)c2ccc(Br)cc2)cc1 ?
Sfp PPTase inh: inactive; ALDH1A1 inh: inactive; LMNA splice mod: inconclusive; G9a block: 56µM!; miR-21 reporter: inactive; JMJD2E inh: inactive

How did COC(=O)c1ccc(NC(=O)CSCC(=O)OCC(=O)c2ccc(Br)cc2)cc1 do in these assays?
Sfp PPTase inh: inactive; ALDH1A1 inh: 22µM; LMNA splice mod: inactive; G9a block: 10µM; miR-21 reporter: inactive; JMJD2E inh: inactive

What do the screens show for `CCc1cccc(NC(=O)CCS(=O)(=O)c2ccc(Br)cc2)c1`?
Sfp PPTase inh: inactive; G9a block: 28µM; miR-21 reporter: inactive

How did COC(=O)c1ccc(NC(=O)CCS(=O)(=O)c2ccc(C)cc2)cc1 do in these assays?
Sfp PPTase inh: inactive; G9a block: inactive; miR-21 reporter: inactive

How did O=C(Oc1ccc(O)cc1)C12CC3CC(CC(C3)C1)C2 do in these assays?
Sfp PPTase inh: inactive; ALDH1A1 inh: inactive; G9a block: 40µM; miR-21 reporter: inactive; JMJD2E inh: inactive

What do the screens show for `CCc1nc(C)ccc1OC(=O)C12CC3CC(CC(C3)C1)C2`?
Sfp PPTase inh: inactive; ALDH1A1 inh: 18µM; LMNA splice mod: inactive; G9a block: inactive; miR-21 reporter: inactive; JMJD2E inh: inconclusive

What do the screens show for `O=C(NCCc1ccccc1)C(=O)NCC(c1cccnc1)N1CCN(c2ccccc2F)CC1` (stereo unspecified)?
LMNA splice mod: inactive; G9a block: inactive; miR-21 reporter: inactive

Results for Cc1ccccc1NS(=O)(=O)c1ccc(Cl)cc1 ?
Sfp PPTase inh: inactive; ALDH1A1 inh: inconclusive; LMNA splice mod: inactive; G9a block: inactive; miR-21 reporter: inactive; JMJD2E inh: inactive

Results for Cc1ccccc1NS(=O)(=O)c1cc(S(C)(=O)=O)ccc1Cl ?
Sfp PPTase inh: inactive; ALDH1A1 inh: 20µM; LMNA splice mod: inactive; G9a block: inactive[12.7 µM]; miR-21 reporter: inactive; JMJD2E inh: inactive

How did COC(=O)CN(c1cc([N+](=O)[O-])ccc1OC)S(C)(=O)=O do in these assays?
Sfp PPTase inh: inactive; ALDH1A1 inh: inconclusive; G9a block: inactive; miR-21 reporter: inactive; JMJD2E inh: inactive

How did CCCN(CCC)CC(O)CN(c1cc([N+](=O)[O-])ccc1OC)S(=O)(=O)c1ccccc1 (stereo unspecified) do in these assays?
Sfp PPTase inh: inactive; ALDH1A1 inh: inconclusive; LMNA splice mod: inactive; G9a block: 56µM; miR-21 reporter: inactive; JMJD2E inh: inactive

What do the screens show for `COc1ccccc1N(CC(O)CN1CCOCC1)S(=O)(=O)c1ccccc1` (stereo unspecified)?
Sfp PPTase inh: inactive; G9a block: 50µM; miR-21 reporter: inactive

What do the screens show for `COc1ccc([N+](=O)[O-])cc1N(CC(=O)O)S(C)(=O)=O`?
Sfp PPTase inh: inactive; ALDH1A1 inh: 32µM; LMNA splice mod: inactive; miR-21 reporter: inactive; JMJD2E inh: inactive

Results for O=C(COC(=O)c1ccccc1SCC(=O)N1CCCC1)NCc1ccccc1 ?
G9a block: inactive

Results for Cc1cc(Br)ccc1NC(=O)C1C2CCC(O2)C1C(=O)O (stereo unspecified) ?
Sfp PPTase inh: inactive; G9a block: 32µM; miR-21 reporter: inactive

What do the screens show for `Cc1ccc(/C=C/C(=O)NCc2ccco2)o1`?
Sfp PPTase inh: 32µM; ALDH1A1 inh: inconclusive; LMNA splice mod: inactive; G9a block: 20µM; miR-21 reporter: inactive; JMJD2E inh: inactive

How did N#C/C(=C/c1ccccc1)C(=O)NCc1ccccc1 do in these assays?
Sfp PPTase inh: inactive; ALDH1A1 inh: inactive; LMNA splice mod: inconclusive; G9a block: inactive; miR-21 reporter: inactive; JMJD2E inh: inactive

Results for O=C(/C=C/c1ccccc1)NCc1ccco1 ?
Sfp PPTase inh: inactive; ALDH1A1 inh: 6µM; G9a block: inconclusive; miR-21 reporter: inactive; JMJD2E inh: inactive

Results for Cc1ccsc1/C=C(\C#N)C(=O)NCc1ccco1 ?
Sfp PPTase inh: inactive; ALDH1A1 inh: inactive; LMNA splice mod: inactive; G9a block: inactive; miR-21 reporter: inactive; JMJD2E inh: inactive

Results for CN(C)c1ccc(/C=C(/C#N)C(=O)NCc2ccccc2)o1 ?
Sfp PPTase inh: inactive; ALDH1A1 inh: inconclusive; LMNA splice mod: inactive; G9a block: 3.5µM; miR-21 reporter: inactive; JMJD2E inh: inactive

What do the screens show for `Cc1ccc(/C=C(\C#N)C(=O)NCc2ccco2)o1`?
Sfp PPTase inh: 50µM; ALDH1A1 inh: inconclusive; LMNA splice mod: inactive; G9a block: inconclusive; miR-21 reporter: inactive; JMJD2E inh: inactive

Results for COc1ccccc1CNC(=O)C1CCCN(c2nc3ccccc3n3cccc23)C1 (stereo unspecified) ?
LMNA splice mod: inactive; G9a block: inactive; miR-21 reporter: inactive

Results for Cc1ccccc1NC(=O)/C(C#N)=C\c1cn(CC(=O)O)c2ccccc12 ?
Sfp PPTase inh: inactive; ALDH1A1 inh: inactive; LMNA splice mod: inactive; G9a block: inactive; miR-21 reporter: inactive; JMJD2E inh: inactive

Bioassay records: PubChem, National Center for Advancing Translational Sciences (NCATS)
